# Patent US4701459A, “7-amino-1,3-dihydro-2H-imidazo[4,5-b]quinolin 2-ones and method for inhibiting phosphodiesterase and blood platelet aggregation” (Bristol-Myers Company, priority 1986, dated 1987)
# Tested on: platelet rich plasma (induced aggregation)
# Assay: Inhibition of Platelet Aggregation Following Oral Administration (Ex vivo method)
# Assay type: in vivo
# Conditions: Rattus norvegicus, rats, oral (gavage), 2 hours after dosing, vs. ADP
# Protocol: Inhibition of Platelet Aggregation Following Oral Administration
# This test is sometimes referred to in the art as an Ex vivo method and was initially described by Fleming, et al., Arch. Int. Pharmacodyn. Ther., 199, 164 (1972). Briefly, the assay is essentially carried out as follows.
# Aggregometry is performed in vitro as previously described on platelet rich plasma samples obtained from rats dosed with either test compounds or the vehicle. In all cases, activity is determined 2 hours after the drug is administered orally at various doses by gavage as a suspension in […] plus a few drops of Tween 20.
structure (smiles),measurement,value
"O=c1[nH]c2cc3cc(N4CCOCC4)ccc3nc2[nH]1 [Example 10, 1,3-Dihydro-7-(4-morpholinyl)-2H-imidazo[4,5-b]quinolin-2-one]",ED50,12.2 mg/kg
